Target: Src kinase (UniProt P12931)

Question: Which Kd does the source give for Na,K-ATPase (from UniProt P05023) here?
Answer: The Kd was 200 nM.

Source: article PMC9455167
